Several values for one entry are separate records, joined by “and”; a condition that tells them apart may be missing. Equal entries are not always repeated. The list shows a part of the results, in another mix than the full data.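 Single-dose data. Exposure time 48 hours. Values below 10 considered active.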 Activity calls are given as the source filed them.
Tests used:
Assay in all cases: NCI-60 one-dose screen, 48 h (100 = growth as untreated, 0 = no growth, -100 = all killed)
Conditions in all cases: 10 µM unless noted
SK-MEL-2 melanoma = system: SK-MEL-2 melanoma
EKVX NSCLC = system: EKVX NSCLC
SN12C renal = system: SN12C renal
UO-31 renal = system: UO-31 renal
TK-10 renal = system: TK-10 renal
ACHN renal = system: ACHN renal
CAKI-1 renal = system: CAKI-1 renal
A498 renal = system: A498 renal
HL-60(TB) leukemia = system: HL-60(TB) leukemia
CCRF-CEM leukemia = system: CCRF-CEM leukemia
MOLT-4 leukemia = system: MOLT-4 leukemia
SR leukemia = system: SR leukemia
RPMI-8226 leukemia = system: RPMI-8226 leukemia
OVCAR-8 ovarian = system: OVCAR-8 ovarian
OVCAR-5 ovarian = system: OVCAR-5 ovarian
OVCAR-4 ovarian = system: OVCAR-4 ovarian
SK-OV-3 ovarian = system: SK-OV-3 ovarian
IGROV1 ovarian = system: IGROV1 ovarian
OVCAR-3 ovarian = system: OVCAR-3 ovarian
HS 578T breast = system: HS 578T breast

Measured: growth

CCCCCCCCCCNP(=S)(Cl)Cl
inactive: SK-MEL-2 melanoma 106% | EKVX NSCLC 103% | SN12C renal 94.2% | UO-31 renal 92.5% | TK-10 renal 96.5% | ACHN renal 99.2% | CAKI-1 renal 96.2% | A498 renal 79.9% | HL-60(TB) leukemia 93.3% | CCRF-CEM leukemia 93.3% | MOLT-4 leukemia 96.3% | SR leukemia 93.8% | RPMI-8226 leukemia 98.5% | OVCAR-8 ovarian 101% | OVCAR-5 ovarian 98.2% | OVCAR-4 ovarian 111% | SK-OV-3 ovarian 118% | IGROV1 ovarian 105% | OVCAR-3 ovarian 107% | HS 578T breast 96.2%

Nc1nnc(N)nn1
inactive: SK-MEL-2 melanoma 111% | EKVX NSCLC 98.5% | SN12C renal 110% | UO-31 renal 90.9% | TK-10 renal 119% | ACHN renal 104% | CAKI-1 renal 95.7% | A498 renal 69.6% | HL-60(TB) leukemia 137% | CCRF-CEM leukemia 107% | MOLT-4 leukemia 107% | SR leukemia 105% | RPMI-8226 leukemia 97.5% | OVCAR-8 ovarian 102% | OVCAR-5 ovarian 105% | OVCAR-4 ovarian 116% | SK-OV-3 ovarian 106% | IGROV1 ovarian 109% | OVCAR-3 ovarian 110% | HS 578T breast 101%

O=[N+]([O-])N=C1NCCN1
inactive: SK-MEL-2 melanoma 103% and 112% | EKVX NSCLC 101% and 110% | SN12C renal 113% and 101% | UO-31 renal 100% and 86.7% | TK-10 renal 91.7% and 111% | ACHN renal 108% and 106% | CAKI-1 renal 88.2% and 89.8% | A498 renal 91.2% and 99.7% | HL-60(TB) leukemia 89.9% and 132% | CCRF-CEM leukemia 48.7% and 104% | MOLT-4 leukemia 106% and 117% | SR leukemia 99.2% and 106% | RPMI-8226 leukemia 92.6% and 98.2% | OVCAR-8 ovarian 111% and 98.8% | OVCAR-5 ovarian 112% and 92.7% | OVCAR-4 ovarian 122% and 111% | SK-OV-3 ovarian 113% and 107% | IGROV1 ovarian 113% and 86.3% | OVCAR-3 ovarian 112% and 109% | HS 578T breast 110% and 81.3%

CCN(CCCl)Cc1cccc2ccccc12
inactive: SK-MEL-2 melanoma 108% | EKVX NSCLC 114% | SN12C renal 102% | UO-31 renal 78% | TK-10 renal 96% | ACHN renal 98.7% | CAKI-1 renal 101% | A498 renal 98.6% | HL-60(TB) leukemia 101% | CCRF-CEM leukemia 87.3% | MOLT-4 leukemia 96.5% | SR leukemia 98.3% | RPMI-8226 leukemia 97.2% | OVCAR-8 ovarian 99.2% | OVCAR-5 ovarian 101% | OVCAR-4 ovarian 104% | SK-OV-3 ovarian 106% | IGROV1 ovarian 113% | OVCAR-3 ovarian 125% | HS 578T breast 118%

O=[N+]([O-])c1cc(Cl)c(O)c([N+](=O)[O-])c1
inactive: SK-MEL-2 melanoma 92.6% | EKVX NSCLC 103% | SN12C renal 97.6% | UO-31 renal 92.1% | TK-10 renal 103% | ACHN renal 105% | CAKI-1 renal 101% | A498 renal 89.7% | HL-60(TB) leukemia 109% | CCRF-CEM leukemia 102% | MOLT-4 leukemia 104% | SR leukemia 101% | RPMI-8226 leukemia 102% | OVCAR-8 ovarian 89.5% | OVCAR-5 ovarian 103% | OVCAR-4 ovarian 104% | SK-OV-3 ovarian 97.6% | IGROV1 ovarian 109% | OVCAR-3 ovarian 114% | HS 578T breast 98%

O=P(Nc1ncccn1)(N1CC1)N1CC1
inactive: SK-MEL-2 melanoma 119% | EKVX NSCLC 91.1% | SN12C renal 92.5% | UO-31 renal 96.6% | TK-10 renal 111% | ACHN renal 107% | CAKI-1 renal 89% | A498 renal 82% | HL-60(TB) leukemia 107% | CCRF-CEM leukemia 103% | MOLT-4 leukemia 107% | SR leukemia 103% | RPMI-8226 leukemia 116% | OVCAR-8 ovarian 94.5% | OVCAR-5 ovarian 102% | OVCAR-4 ovarian 107% | SK-OV-3 ovarian 115% | IGROV1 ovarian 116% | OVCAR-3 ovarian 121% | HS 578T breast 99.6%

COc1cccc(OC)c1N(CCCl)CCCl
inactive: SK-MEL-2 melanoma 99.5% | EKVX NSCLC 102% | SN12C renal 95.8% | UO-31 renal 90.4% | TK-10 renal 98.8% | ACHN renal 105% | CAKI-1 renal 95.3% | A498 renal 108% | HL-60(TB) leukemia 92.4% | CCRF-CEM leukemia 105% | MOLT-4 leukemia 93.4% | SR leukemia 96.1% | RPMI-8226 leukemia 103% | OVCAR-8 ovarian 113% | OVCAR-5 ovarian 96.2% | OVCAR-4 ovarian 98.4% | SK-OV-3 ovarian 102% | IGROV1 ovarian 90.1% | OVCAR-3 ovarian 106% | HS 578T breast 99.7%

CCOC(=O)Nc1ccc([As](=O)(O)O)c(O)c1
inactive: SK-MEL-2 melanoma 128% | EKVX NSCLC 99.6% | SN12C renal 102% | UO-31 renal 102% | TK-10 renal 116% | ACHN renal 108% | CAKI-1 renal 93.9% | A498 renal 122% | HL-60(TB) leukemia 80.3% | CCRF-CEM leukemia 96.8% | MOLT-4 leukemia 93.2% | SR leukemia 110% | RPMI-8226 leukemia 99.4% | OVCAR-8 ovarian 106% | OVCAR-5 ovarian 114% | OVCAR-4 ovarian 97.3% | SK-OV-3 ovarian 107% | IGROV1 ovarian 89.3% | OVCAR-3 ovarian 108% | HS 578T breast 105%

COc1ccc(N)c([N+](=O)[O-])c1[N+](=O)[O-]
inactive: SK-MEL-2 melanoma 116% | EKVX NSCLC 106% | SN12C renal 93.3% | UO-31 renal 92.2% | TK-10 renal 129% | ACHN renal 96.1% | CAKI-1 renal 110% | A498 renal 102% | HL-60(TB) leukemia 51.6% | CCRF-CEM leukemia 101% | MOLT-4 leukemia 99.5% | SR leukemia 99.9% | RPMI-8226 leukemia 91.2% | OVCAR-8 ovarian 95.6% | OVCAR-5 ovarian 99% | OVCAR-4 ovarian 103% | SK-OV-3 ovarian 115% | IGROV1 ovarian 110% | OVCAR-3 ovarian 111% | HS 578T breast 103%

CC(C)(NCCCl)C(O)c1ccccc1 (stereo not given)
inactive: SK-MEL-2 melanoma 80.5% | EKVX NSCLC 104% | SN12C renal 88.7% | UO-31 renal 94.1% | TK-10 renal 83.5% | ACHN renal 85.2% | CAKI-1 renal 80.9% | A498 renal 104% | HL-60(TB) leukemia 93% | CCRF-CEM leukemia 72.2% | MOLT-4 leukemia 66.2% | SR leukemia 68.6% | RPMI-8226 leukemia 85.2% | OVCAR-8 ovarian 80.2% | OVCAR-5 ovarian 118% | OVCAR-4 ovarian 93.6% | SK-OV-3 ovarian 94.3% | IGROV1 ovarian 96% | OVCAR-3 ovarian 98.6% | HS 578T breast 103%

CCN(CCCl)CC1COc2ccccc2O1 (stereo not given)
inactive: SK-MEL-2 melanoma 108% | EKVX NSCLC 106% | SN12C renal 101% | UO-31 renal 78.4% | TK-10 renal 92.8% | ACHN renal 106% | CAKI-1 renal 99.5% | A498 renal 109% | HL-60(TB) leukemia 110% | CCRF-CEM leukemia 109% | MOLT-4 leukemia 101% | SR leukemia 102% | RPMI-8226 leukemia 97.9% | OVCAR-8 ovarian 102% | OVCAR-5 ovarian 99.6% | OVCAR-4 ovarian 113% | SK-OV-3 ovarian 109% | IGROV1 ovarian 109% | OVCAR-3 ovarian 116% | HS 578T breast 95.3%

O=C1CSC(C(Cl)(Cl)Cl)N1c1ccc(Cl)cc1 (stereo not given)
inactive: SK-MEL-2 melanoma 114% | EKVX NSCLC 92.8% | SN12C renal 94.7% | UO-31 renal 92.6% | TK-10 renal 107% | ACHN renal 92.6% | CAKI-1 renal 88.8% | A498 renal 101% | HL-60(TB) leukemia 118% | CCRF-CEM leukemia 91.7% | MOLT-4 leukemia 101% | SR leukemia 107% | RPMI-8226 leukemia 94.6% | OVCAR-8 ovarian 96% | OVCAR-5 ovarian 100% | OVCAR-4 ovarian 93.2% | SK-OV-3 ovarian 106% | IGROV1 ovarian 95.2% | OVCAR-3 ovarian 111% | HS 578T breast 98.4%

COP(OC)c1ccc(C)cc1
inactive: SK-MEL-2 melanoma 96.7% | EKVX NSCLC 121% | SN12C renal 105% | UO-31 renal 115% | TK-10 renal 117% | ACHN renal 105% | CAKI-1 renal 107% | A498 renal 96.4% | HL-60(TB) leukemia 73.1% | CCRF-CEM leukemia 86.4% | MOLT-4 leukemia 73.9% | SR leukemia 94.1% | RPMI-8226 leukemia 97.8% | OVCAR-8 ovarian 97.9% | OVCAR-5 ovarian 114% | OVCAR-4 ovarian 108% | SK-OV-3 ovarian 115% | IGROV1 ovarian 110% | OVCAR-3 ovarian 99.6% | HS 578T breast 108%

ClC(Cl)(Cl)C1SCCS1
inactive: SK-MEL-2 melanoma 114% | EKVX NSCLC 95.1% | SN12C renal 99.5% | UO-31 renal 93.2% | TK-10 renal 107% | ACHN renal 108% | CAKI-1 renal 91.4% | A498 renal 89.8% | HL-60(TB) leukemia 93.5% | CCRF-CEM leukemia 97.2% | MOLT-4 leukemia 92.8% | SR leukemia 102% | RPMI-8226 leukemia 96% | OVCAR-8 ovarian 98% | OVCAR-5 ovarian 114% | OVCAR-4 ovarian 107% | SK-OV-3 ovarian 131% | IGROV1 ovarian 102% | OVCAR-3 ovarian 118% | HS 578T breast 109%

ClCCNCC1COc2ccccc2O1 (stereo not given)
inactive: SK-MEL-2 melanoma 103% | EKVX NSCLC 102% | SN12C renal 101% | UO-31 renal 85.9% | TK-10 renal 93.1% | ACHN renal 106% | CAKI-1 renal 96.9% | A498 renal 80.9% | HL-60(TB) leukemia 107% | CCRF-CEM leukemia 102% | MOLT-4 leukemia 99.7% | SR leukemia 90.6% | RPMI-8226 leukemia 102% | OVCAR-8 ovarian 99.9% | OVCAR-5 ovarian 102% | OVCAR-4 ovarian 112% | SK-OV-3 ovarian 104% | IGROV1 ovarian 108% | OVCAR-3 ovarian 104% | HS 578T breast 95.4%
